Values quoted from earlier work as cited in patent publication US6100254A, “Inhibitors of protein tyrosine kinases” (Board of Regents, The University of Texas System, priority 1997, dated 2000).

Settings: in vivo; cited from earlier work

Which oral absorption does the source give for `O=C(O)CCCc1ccc(N(CCCl)CCCl)cc1` [Chlorambucil, 4-[bis(2-chlorethyl)amino]benzenebutanoic acid] here?
The oral absorption was “rapidly and completely absorbed”.
